The experiment has as its system flexible molecular sensor (DNA). The experiment in a line: Flexible (tongs-shaped) molecular sensor in solution, groove binders and polypeptides (FRET ratio). It counts as binding.

In the case of penta-lysine, the “FRET ratio as a function of compound concentration” value is “increase the FRET ratio”.
Then tetra-lysine, with “increase the FRET ratio”.

The values are drawn from patent US11242555B2, “Molecular sensors and uses thereof” (New York University, priority 2018, dated 2022).
